Earlier results in publication PMC8611036, “An integrated method for optimized identification of effective natural inhibitors against SARS-CoV-2 3CLpro” (Scientific Reports, 2021).

Conditions: ref TCMSP database; cited from earlier work

## cyanidol [MOL000002]
  Caco-2: 0.17
